Results published in PubChem BioAssay AID1768 (National Center for Advancing Translational Sciences (NCATS), 2009).
This is a selection; strong and weak results do not stand in their true shares. Records with an inconclusive call do not appear. Active and inactive are the calls of the source. Calls follow the shape of the dose curve; as a rule, active = well fitted inhibition curve with a large enough effect in the polarisation, with a control signal flat (not every such curve was filed as active); inconclusive = small, poorly fitted or top-dose-only effect, or effect the other way, or a change in a side signal; inactive = no such curve, though single readings can be large or run the other way; the % refers to the polarisation.

Protein sequences, listed by entry. Tags and fused reporters are not part of them.
UniProt O00255, whole entry: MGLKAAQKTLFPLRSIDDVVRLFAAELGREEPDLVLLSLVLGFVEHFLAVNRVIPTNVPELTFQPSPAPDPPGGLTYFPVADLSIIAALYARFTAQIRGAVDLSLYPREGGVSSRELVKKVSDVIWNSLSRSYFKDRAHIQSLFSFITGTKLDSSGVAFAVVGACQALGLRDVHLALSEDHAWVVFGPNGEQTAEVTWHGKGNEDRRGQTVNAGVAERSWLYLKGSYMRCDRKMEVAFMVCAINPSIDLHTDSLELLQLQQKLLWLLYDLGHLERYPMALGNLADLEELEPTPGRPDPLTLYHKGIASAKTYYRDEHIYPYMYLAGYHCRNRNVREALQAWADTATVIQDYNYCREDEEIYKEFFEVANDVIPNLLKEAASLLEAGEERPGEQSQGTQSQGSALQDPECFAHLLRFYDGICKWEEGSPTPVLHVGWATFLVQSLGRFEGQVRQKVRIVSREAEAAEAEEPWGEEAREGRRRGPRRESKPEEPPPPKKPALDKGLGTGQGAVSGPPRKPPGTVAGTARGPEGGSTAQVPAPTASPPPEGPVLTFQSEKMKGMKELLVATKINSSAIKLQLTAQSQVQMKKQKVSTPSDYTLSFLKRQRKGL
UniProt Q03164, whole entry partner: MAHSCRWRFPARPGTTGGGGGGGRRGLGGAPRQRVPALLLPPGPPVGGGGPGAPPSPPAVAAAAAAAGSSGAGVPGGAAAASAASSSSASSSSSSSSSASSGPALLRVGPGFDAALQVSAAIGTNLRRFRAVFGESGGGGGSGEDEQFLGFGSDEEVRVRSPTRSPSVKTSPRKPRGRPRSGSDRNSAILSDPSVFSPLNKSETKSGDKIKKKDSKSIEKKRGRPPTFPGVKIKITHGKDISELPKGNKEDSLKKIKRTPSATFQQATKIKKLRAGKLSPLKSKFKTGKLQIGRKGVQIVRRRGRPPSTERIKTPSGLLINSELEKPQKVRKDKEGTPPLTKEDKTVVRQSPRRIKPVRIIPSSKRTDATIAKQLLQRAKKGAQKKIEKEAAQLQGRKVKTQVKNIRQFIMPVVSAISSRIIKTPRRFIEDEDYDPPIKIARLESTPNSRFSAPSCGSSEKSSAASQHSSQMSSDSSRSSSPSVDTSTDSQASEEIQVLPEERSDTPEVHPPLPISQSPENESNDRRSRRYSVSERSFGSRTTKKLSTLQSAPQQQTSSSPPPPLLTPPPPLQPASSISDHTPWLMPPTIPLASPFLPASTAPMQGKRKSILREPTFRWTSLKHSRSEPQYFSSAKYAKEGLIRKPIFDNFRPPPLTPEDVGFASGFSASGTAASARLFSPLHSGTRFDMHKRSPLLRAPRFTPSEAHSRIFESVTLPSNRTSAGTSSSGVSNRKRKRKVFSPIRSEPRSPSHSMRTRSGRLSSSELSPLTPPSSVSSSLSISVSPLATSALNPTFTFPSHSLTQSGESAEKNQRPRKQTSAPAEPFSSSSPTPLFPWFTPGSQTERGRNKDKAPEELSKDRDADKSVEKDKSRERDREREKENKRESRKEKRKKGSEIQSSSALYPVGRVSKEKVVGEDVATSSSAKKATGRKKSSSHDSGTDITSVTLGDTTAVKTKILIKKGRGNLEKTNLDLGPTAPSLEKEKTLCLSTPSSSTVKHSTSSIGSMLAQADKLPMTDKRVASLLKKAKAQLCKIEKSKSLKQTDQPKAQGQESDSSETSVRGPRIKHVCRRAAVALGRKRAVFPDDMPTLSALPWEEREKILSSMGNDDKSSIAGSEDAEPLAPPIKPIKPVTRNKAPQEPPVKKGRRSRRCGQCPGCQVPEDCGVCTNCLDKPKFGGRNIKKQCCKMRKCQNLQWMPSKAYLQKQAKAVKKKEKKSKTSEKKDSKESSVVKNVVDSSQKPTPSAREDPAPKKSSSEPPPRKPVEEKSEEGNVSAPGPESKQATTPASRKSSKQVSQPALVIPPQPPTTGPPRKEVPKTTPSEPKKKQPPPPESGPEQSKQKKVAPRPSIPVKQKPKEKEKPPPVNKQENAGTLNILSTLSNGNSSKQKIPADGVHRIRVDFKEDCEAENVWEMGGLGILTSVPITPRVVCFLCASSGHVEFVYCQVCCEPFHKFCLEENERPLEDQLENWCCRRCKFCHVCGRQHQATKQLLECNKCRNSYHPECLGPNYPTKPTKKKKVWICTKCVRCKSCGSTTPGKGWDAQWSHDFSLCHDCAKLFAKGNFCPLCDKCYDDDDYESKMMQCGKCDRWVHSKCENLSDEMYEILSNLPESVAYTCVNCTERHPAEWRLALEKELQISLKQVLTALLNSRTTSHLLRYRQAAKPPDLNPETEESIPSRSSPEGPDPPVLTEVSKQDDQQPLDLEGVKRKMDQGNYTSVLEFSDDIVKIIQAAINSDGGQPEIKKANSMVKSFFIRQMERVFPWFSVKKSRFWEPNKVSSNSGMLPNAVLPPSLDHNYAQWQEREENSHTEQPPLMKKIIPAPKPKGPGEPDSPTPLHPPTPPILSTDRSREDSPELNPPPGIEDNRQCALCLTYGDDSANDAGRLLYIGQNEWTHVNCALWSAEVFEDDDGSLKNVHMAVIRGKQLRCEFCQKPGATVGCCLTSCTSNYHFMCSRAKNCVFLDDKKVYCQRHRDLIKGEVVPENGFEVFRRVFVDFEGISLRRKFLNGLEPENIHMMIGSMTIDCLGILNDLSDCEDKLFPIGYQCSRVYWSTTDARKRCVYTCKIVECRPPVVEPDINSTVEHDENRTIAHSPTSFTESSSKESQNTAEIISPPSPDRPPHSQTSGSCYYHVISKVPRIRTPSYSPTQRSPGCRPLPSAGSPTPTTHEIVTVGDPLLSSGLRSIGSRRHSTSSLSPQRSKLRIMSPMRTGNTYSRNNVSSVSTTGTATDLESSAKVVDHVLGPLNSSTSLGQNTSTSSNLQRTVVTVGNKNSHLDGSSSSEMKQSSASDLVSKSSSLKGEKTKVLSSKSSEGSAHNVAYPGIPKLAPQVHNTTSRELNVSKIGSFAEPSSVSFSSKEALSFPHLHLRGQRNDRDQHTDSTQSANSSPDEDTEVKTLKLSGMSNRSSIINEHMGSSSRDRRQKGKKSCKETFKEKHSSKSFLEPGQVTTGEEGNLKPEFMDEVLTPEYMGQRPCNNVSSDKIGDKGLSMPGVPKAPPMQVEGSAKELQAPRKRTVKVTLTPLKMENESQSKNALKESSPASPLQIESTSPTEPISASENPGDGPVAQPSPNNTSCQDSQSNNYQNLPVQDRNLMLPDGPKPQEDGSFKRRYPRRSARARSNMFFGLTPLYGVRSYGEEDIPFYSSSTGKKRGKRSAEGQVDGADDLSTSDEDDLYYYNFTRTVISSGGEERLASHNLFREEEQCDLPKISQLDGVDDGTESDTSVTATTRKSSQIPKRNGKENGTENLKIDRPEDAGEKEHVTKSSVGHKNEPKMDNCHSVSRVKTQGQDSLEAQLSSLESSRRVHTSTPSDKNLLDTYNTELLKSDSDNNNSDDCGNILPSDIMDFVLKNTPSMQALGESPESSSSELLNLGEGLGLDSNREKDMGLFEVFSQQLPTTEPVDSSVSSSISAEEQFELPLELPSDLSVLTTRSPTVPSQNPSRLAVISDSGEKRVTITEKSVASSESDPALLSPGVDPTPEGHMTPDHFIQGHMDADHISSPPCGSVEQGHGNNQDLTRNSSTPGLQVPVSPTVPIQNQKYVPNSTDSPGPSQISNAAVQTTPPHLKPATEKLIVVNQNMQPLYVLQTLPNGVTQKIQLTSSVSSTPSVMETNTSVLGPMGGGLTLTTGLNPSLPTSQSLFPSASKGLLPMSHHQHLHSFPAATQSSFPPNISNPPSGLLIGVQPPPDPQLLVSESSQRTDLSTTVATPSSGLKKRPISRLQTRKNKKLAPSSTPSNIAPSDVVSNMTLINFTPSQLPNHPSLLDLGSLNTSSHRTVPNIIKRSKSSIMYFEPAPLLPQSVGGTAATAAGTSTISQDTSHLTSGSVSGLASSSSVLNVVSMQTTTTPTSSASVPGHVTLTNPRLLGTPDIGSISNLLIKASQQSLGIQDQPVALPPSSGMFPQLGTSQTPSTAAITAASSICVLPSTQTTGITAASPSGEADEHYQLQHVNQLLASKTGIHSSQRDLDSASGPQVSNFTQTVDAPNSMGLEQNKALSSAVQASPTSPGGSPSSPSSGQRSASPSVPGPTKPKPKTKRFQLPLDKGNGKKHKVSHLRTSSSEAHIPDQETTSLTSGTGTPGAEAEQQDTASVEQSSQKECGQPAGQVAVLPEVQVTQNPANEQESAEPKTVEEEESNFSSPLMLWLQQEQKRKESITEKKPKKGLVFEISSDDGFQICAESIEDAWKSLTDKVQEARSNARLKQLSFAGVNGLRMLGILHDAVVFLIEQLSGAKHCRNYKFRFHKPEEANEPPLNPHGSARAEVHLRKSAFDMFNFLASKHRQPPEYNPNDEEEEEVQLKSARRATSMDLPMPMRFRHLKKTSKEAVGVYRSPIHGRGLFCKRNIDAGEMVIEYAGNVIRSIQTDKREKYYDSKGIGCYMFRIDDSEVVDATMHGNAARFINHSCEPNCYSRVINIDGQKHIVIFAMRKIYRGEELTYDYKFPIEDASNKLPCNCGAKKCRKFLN

Molecular target: Menin (Homo sapiens) (UniProt O00255)
Assay: qHTS Assay for Inhibitors Targeting the Menin-MLL Interaction in MLL Related Leukemias: Competition With Texas Red Labeled MLL-derived Mutant Peptide; also: % of control where 0% means no effect
Settings: fluorescence polarization; at 61.6 µM (top of the series) unless noted

| Structure (SMILES) | FP activity change, negative = inhibition |
| --- | --- |
| COc1ccc(NP(C)(=O)Oc2ccccc2OC)cc1 (stereo not drawn) | inactive: -4.01% |
| CN(C)CCOC(=O)C(O)(c1ccccc1)C1CCCCC1 (stereo not drawn) | inactive: -20.4% |
| COc1ccc(OP(C)(=O)Nc2cccc(Br)c2)cc1 (stereo not drawn) | inactive: -21.7% |
| O=[N+]([O-])c1ccc(OP2(=O)COCCO2)cc1 (stereo not drawn) | inactive: 20.6% |
| CCOP(C)(=S)SCC(=O)NC(C)(CC)C(=O)O (stereo not drawn) | inactive: 16.7% |
| CCN(CCCl)Cc1ccccc1C | inactive: -12.9% |
| Cc1ccccc1NP(C)(=O)Nc1ccccc1C | inactive: 22.8% |
| CP(=O)(Nc1ccc2c(c1)OCCO2)Oc1ccccc1 (stereo not drawn) | inactive: 4.96% |
| CC(C)c1ccc(OP(C)(=O)Nc2ccc(SC(F)(F)F)cc2)cc1 (stereo not drawn) | inactive: -3.37% |
| CP(=O)(Nc1ccccc1F)Oc1ccccc1 (stereo not drawn) | inactive: 1.57% |
| COc1ccc(OP(C)(=O)Nc2ccc(SC(F)(F)F)cc2)cc1 (stereo not drawn) | inactive: -7.57% |
| CCOC(=O)c1ccc(NP(C)(=O)Oc2ccc(F)cc2)cc1 (stereo not drawn) | inactive: -7.96% |
| CP(=O)(Nc1ccccc1)Oc1ccc(F)cc1 (stereo not drawn) | inactive: -19.7% |
| CCN(CC)CCCOC(=O)C(O)(c1ccccc1)C1CCCCC1 (stereo not drawn) | inactive: -5.81% |
| COc1ccc(OP(C)(=O)Nc2ccccc2Br)cc1 (stereo not drawn) | inactive: 1.4% |
| COc1ccccc1OP(C)(=O)Nc1ccc(C)c(C)c1 (stereo not drawn) | inactive: -1.3% |
| Cc1cc(C)cc(OP(C)(=O)Nc2cccc(C(F)(F)F)c2)c1 (stereo not drawn) | inactive: -22% |
| CP(=O)(OCCOc1ccccc1)OCCOc1ccccc1 | inactive: -6.99% |
| CP(=O)(Nc1ccc(Cl)cc1Cl)Oc1ccccc1 (stereo not drawn) | inactive: -10.5% |
| CN(C)CCOC(=O)C(O)(c1ccccc1)C1CCCC1 (stereo not drawn) | inactive: 0.027% |
| COc1ccc(OP(C)(=O)Nc2ccccn2)cc1 (stereo not drawn) | inactive: 1.84% |
| CCc1ccc(OP(C)(=O)O)cc1 | inactive: -2.11% |
| COc1ccccc1OP(C)(=O)Nc1ccc(C)cc1C (stereo not drawn) | inactive: -7.73% |
| CP(=O)(Nc1ccccn1)Oc1ccccc1 (stereo not drawn) | inactive: -7.58% |
| O=[N+]([O-])c1cc([N+](=O)[O-])c(Nc2ccccn2)c([N+](=O)[O-])c1 | inactive: 9.31% |

| Structure (SMILES) | FP activity change, negative = inhibition |
| --- | --- |
| Cc1c(NP(C)(=O)Oc2ccc(C(C)C)cc2)c(=O)n(-c2ccccc2)n1C (stereo not drawn) | inactive: -29.3% |
| CCc1ccc(OP(C)(=O)Nc2cccnc2)cc1 (stereo not drawn) | inactive: 0.586% |
| CP(=O)(Oc1ccccc1)N1CCOC1=O (stereo not drawn) | inactive: 0.474% |
| OCCSCCO | inactive: -2.38% |
| COc1ccccc1OP(C)(=O)Nc1c(C)n(C)n(-c2ccccc2)c1=O (stereo not drawn) | inactive: -6.11% |
| COc1ccc(OP(C)(=O)Nc2ccc(Br)cc2)cc1 (stereo not drawn) | inactive: 1.33% |
| CCN(CC)CC(O)COC(=O)C(O)(c1ccccc1)C1CCCCC1 (stereo not drawn) | inactive: -5.92% |
| CN(C)C(=O)c1c([N+](=O)[O-])cc([N+](=O)[O-])cc1[N+](=O)[O-] | inactive: -18.9% |
| CP(=O)(Nc1ccc(Cl)cc1)Oc1ccc(F)cc1 (stereo not drawn) | inactive: 2.06% |
| CC(C)(C)c1ccc(OP(C)(=O)O)cc1 | inactive: -4.14% |
| COc1ccccc1OP(C)(=O)Nc1ccccc1Br (stereo not drawn) | inactive: -2.01% |
| CCOC(=O)c1ccc(NP(C)(=O)Oc2ccc(Cl)cc2)cc1 (stereo not drawn) | inactive: -4.09% |
| CC(C)OP(=O)(F)OC(C)C | inactive: 2.01% |
| C/C1=C2N=C(/C=C3N=C(/C(C)=C4\[N-][C@@](C)([C@H]5N=C1[C@@](C)(CCC(=O)NC[C@H](C)OP(=O)([O-])O[C@@H]1[C@H](O)[C@H](n6cnc7cc(C)c(C)cc76)O[C@@H]1CO)[C@@H]5CC(N)=O)[C@](C)(CC(N)=O)[C@H]4CCC(N)=O)[C@@](C)(CC(N)=O)[C@@H]\3CCC(N)=O)C(C)(C)[C@@H]/2CCC(N)=O.[C-]#N.[Co+3] | inactive: -14.9% [at 24.8 µM] |
| COc1ccccc1OP(C)(=O)Nc1ccccc1 (stereo not drawn) | inactive: -11.8% |
| CP(=O)(Nc1ccccc1Br)Oc1ccccc1 (stereo not drawn) | inactive: -4.62% |
| CP(=S)(Nn1cnnc1)Oc1ccccc1 (stereo not drawn) | inactive: 18.6% |
| Cc1cc(C)cc(OP(C)(=O)Nc2ccc(SC(F)(F)F)cc2)c1 (stereo not drawn) | inactive: -0.651% |
| CP(=O)(NC(=O)Nc1ccccc1)Oc1ccccc1 (stereo not drawn) | inactive: -5.03% |
| CP(=O)(Oc1ccccc1)OC(c1ccccc1)C(F)(F)F (stereo not drawn) | inactive: -24.3% |
| Cc1cccc(C)c1OP(C)(=O)Nc1ccc(SC(F)(F)F)cc1 (stereo not drawn) | inactive: 3.06% |
| CP(=O)(Nc1ccccn1)Oc1ccc(Cl)cc1 (stereo not drawn) | inactive: -10.5% |
| CCOP(C)(=S)SCC(=O)NC(C)C(=O)O (stereo not drawn) | inactive: 2.51% |
| CN(C)CCS | inactive: -6.97% |
| CCOC(=O)c1ccc(NP(C)(=O)Oc2ccc(OC)cc2)cc1 (stereo not drawn) | inactive: -18.7% |

| Structure (SMILES) | FP activity change, negative = inhibition |
| --- | --- |
| CCN(CC)CCCOC(=O)C(O)(c1ccccc1)c1ccccc1 | inactive: 1.87% |
| O=[N+]([O-])[O-].[NH4+] | inactive: -6.73% |
| O=C(O)C(O)(c1ccccc1)c1ccccc1 | inactive: -0.863% |
| Cc1cccc(C)c1OP(C)(N)=O (stereo not drawn) | inactive: -25.6% |
| CC(C)(C)c1ccc(OP(C)(=O)Nc2ccc(SC(F)(F)F)cc2)cc1 (stereo not drawn) | inactive: 10.1% |
| O=C(O)C1(O)c2ccccc2-c2ccccc21 | inactive: -4.72% |
| COc1ccc(OP(C)(=O)Nc2cccc(F)c2)cc1 (stereo not drawn) | inactive: -0.305% |
| COc1ccccc1OP(C)(=O)Nc1cc(Cl)ccc1C (stereo not drawn) | inactive: -11.3% |
| Cc1cc(C)cc(OP(C)(N)=O)c1 (stereo not drawn) | inactive: 7.25% |
| CCOC(=O)c1ccc(NP(C)(=O)Oc2ccccc2)cc1 (stereo not drawn) | inactive: 3.4% |
| Cc1ccc(NP(C)(=O)Oc2ccccc2)c(C)c1 (stereo not drawn) | inactive: -3.14% |
| COc1ccccc1OP(C)(=O)Nc1ccc(C)cc1 (stereo not drawn) | inactive: -13.9% |
| O=[N+]([O-])c1cccc([N+](=O)[O-])c1 | inactive: 4.4% |
| O=[N+]([O-])OCC(CO[N+](=O)[O-])(CO[N+](=O)[O-])CO[N+](=O)[O-] | inactive: -23.5% |
| CC1=NCCc2c1[nH]c1ccccc21.O=[N+]([O-])c1cc([N+](=O)[O-])c(O)c([N+](=O)[O-])c1 | inactive: -3.52% |
| CCOC(=O)c1ccc(NP(C)(=O)Oc2cc(C)cc(C)c2)cc1 (stereo not drawn) | inactive: -13.5% |
| CP(=O)(Nc1cccc(Br)c1)Oc1ccccc1 (stereo not drawn) | inactive: -1.97% |
| Cc1cc(C)cc(OP(C)(=O)Nc2ccccn2)c1 (stereo not drawn) | inactive: -1.13% |
| Cc1ccc(C)c(NP(C)(=O)Oc2ccccc2)c1 (stereo not drawn) | inactive: -15.7% |
| Cc1nc2ccc3ccccc3c2s1.O=[N+]([O-])c1cc([N+](=O)[O-])c(O)c([N+](=O)[O-])c1 | inactive: 17% |
| CP(=O)(Nc1ccc(SC(F)(F)F)cc1)Oc1ccccc1 (stereo not drawn) | inactive: 4.87% |
| CN1CCCCC1COC(=O)C1(O)c2ccccc2CCc2ccccc21 (stereo not drawn) | inactive: -9.91% |
| COc1ccccc1OP(C)(=O)Nc1c(C)cccc1C (stereo not drawn) | inactive: -7.68% |
